Data as given in US5602102A, “Dipeptidyl peptidase-I inhibitors and uses thereof” (Board of Regents, The Univ. of TX System, priority 1992, dated 1997).

Key:
[1] = target: propeptide-bearing form of human cathepsin G (human) (UniProt P08311); test: adsorption of 3H-isoleucine labelled extract of U-937 cells cultured with Gly-Phe-CHN2 to aprotinin-agarose; cathepsin G counted after immunoadsorption
[2] = target: human cathepsin G, mature enzymatically active form (human) (UniProt P08311); test: adsorption of 3H-isoleucine labelled control U-937 cell extract to aprotinin-agarose; cathepsin G counted after immunoadsorption

## aprotinin-agarose (from UniProt P00974)
[1]
  aprotinin-agarose bound cpm: 2380 cpm
  aprotinin-agarose bound, % of total cathepsin G-immunoreactive cpm: 4%
  aprotinin-agarose unbound cpm: 57300 cpm
  aprotinin-agarose unbound, % of total cathepsin G-immunoreactive cpm: 96%

## aprotinin-agarose (from UniProt P00974) (other; other documents disagree on this pair)
[2]
  aprotinin-agarose bound cpm: 22900 cpm
  aprotinin-agarose bound, % of total cathepsin G-immunoreactive cpm: 48%
  aprotinin-agarose unbound cpm: 24400 cpm
  aprotinin-agarose unbound, % of total cathepsin G-immunoreactive cpm: 52%
